Reference: patent US20250051346A1 (priority 2021, published 2025)
Where two headings read alike, the source gives them in different places.

By UniProt entry, the sequences of proteins in these tests, tags left out. Residues count along the entry.
UniProt P28335, whole entry I156V/N158S/I160V, looked up: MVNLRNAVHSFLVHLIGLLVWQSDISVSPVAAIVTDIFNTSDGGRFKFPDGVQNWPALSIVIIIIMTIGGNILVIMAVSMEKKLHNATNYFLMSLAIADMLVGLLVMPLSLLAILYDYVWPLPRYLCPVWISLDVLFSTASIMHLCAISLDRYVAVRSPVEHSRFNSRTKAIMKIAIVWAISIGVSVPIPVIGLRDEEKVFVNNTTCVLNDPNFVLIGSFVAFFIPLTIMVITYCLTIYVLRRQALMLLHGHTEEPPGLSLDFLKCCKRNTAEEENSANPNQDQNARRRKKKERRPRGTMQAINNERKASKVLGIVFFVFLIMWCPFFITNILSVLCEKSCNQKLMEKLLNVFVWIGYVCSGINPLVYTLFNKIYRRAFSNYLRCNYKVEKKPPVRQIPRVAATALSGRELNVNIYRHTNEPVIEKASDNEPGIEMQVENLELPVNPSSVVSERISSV
UniProt P28335, 33-458 I156V/N158S/I160V limits assumed: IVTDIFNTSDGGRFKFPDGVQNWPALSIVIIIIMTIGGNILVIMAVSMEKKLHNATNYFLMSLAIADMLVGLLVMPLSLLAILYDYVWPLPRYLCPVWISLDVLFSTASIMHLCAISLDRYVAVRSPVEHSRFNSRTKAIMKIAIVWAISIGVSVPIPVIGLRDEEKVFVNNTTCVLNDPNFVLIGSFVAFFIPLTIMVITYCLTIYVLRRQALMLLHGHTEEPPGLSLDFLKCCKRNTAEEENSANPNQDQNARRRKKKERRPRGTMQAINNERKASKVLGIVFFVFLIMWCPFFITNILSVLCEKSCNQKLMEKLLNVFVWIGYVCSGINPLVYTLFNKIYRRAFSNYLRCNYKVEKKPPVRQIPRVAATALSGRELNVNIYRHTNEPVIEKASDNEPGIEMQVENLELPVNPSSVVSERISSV

Legend:
[1] = biological target: human recombinant 5-HT2C edited receptor (accession number AAF35842.1) (Homo sapiens, UniProt P28335, I156V/N158S/I160V); test: Serotonin 5-HT2C in vitro cellular IPOne agonism assay; settings: read-out: 5HT2C IPONE AGONISM ACTIVITY, CHO-K1 cells, 60 min
[2] = biological target: 5-HT2C edited (accession number AAF35842.1) (Homo sapiens, UniProt P28335, I156V/I160V/N158S); test: Serotonin 5-HT2C in vitro radioligand binding competition assay; settings: read-out: 5HT2C RADIOLIGAND BINIDNG ACTIVITY, [3H]-DOI radiotracer, membrane extracts

Structure (SMILES) | EC50 ([1]; benzofurans) | IC50 ([2]; benzofurans) | EC50 ([1]; benzothiophenes) | IC50 ([2]; benzothiophenes)
Fc1cccc2oc3c(c12)CN(CC(F)(F)F)CCC3 [Compound 5, 10-fluoro-2-(2,2,2-trifluoroethyl)-2,3,4,5-tetrahydro-1H-benzofuro[3,2-c]azepine] | 1 to 10 µM | 1 to 10 µM |  | 
Fc1ccc2c3c(sc2c1)CCN(CC(F)(F)F)CC3 [Compound 71, 8-fluoro-3-(2,2,2-trifluoroethyl)-2,3,4,5-tetrahydro-1H-benzo[4,5]thieno[2,3-d]azepine] |  |  | 0.101 to 1 µM | > 10 µM
Fc1cccc2oc3c(c12)CCN(CC(F)(F)F)CC3 [Compound 8, 10-fluoro-3-(2,2,2-trifluoroethyl)-2,3,4,5-tetrahydro-1H-benzofuro[2,3-d]azepine] | > 10 µM | > 10 µM |  | 
CN1CCCc2oc3cc(OC(F)(F)F)ccc3c2C1 [Compound 53, 2-methyl-8-(trifluoromethoxy)-2,3,4,5-tetrahydro-1H-benzofuro[3,2-c]azepine] | > 10 µM | 1 to 10 µM |  | 
FC(F)(F)Oc1ccc2c3c(sc2c1)CCN(C1CCC1)CC3 [Compound 76, 3-cyclobutyl-8-(trifluoromethoxy)-2,3,4,5-tetrahydro-1H-benzo[4,5]thieno[2,3-d]azepine] |  |  | 1 to 10 µM | 1 to 10 µM
c1ccc(COc2cccc3oc4c(c23)CCNCC4)cc1 [Compound 47, 10-(benzyloxy)-2,3,4,5-tetrahydro-1H-benzofuro[2,3-d]azepine] | 0.101 to 1 µM | 0.01 to 0.1 µM |  | 
COc1cccc2oc3c(c12)CCN(C1CCC1)CC3 [Compound 15, 3-cyclobutyl-10-methoxy-2,3,4,5-tetrahydro-1H-benzofuro[2,3-d]azepine] | 0.101 to 1 µM | 0.101 to 1 µM |  | 
Fc1cccc2oc3c(c12)CNCCC3 [Compound 7, 10-fluoro-2,3,4,5-tetrahydro-1H-benzofuro[3,2-c]azepine] | 1 to 10 µM | 1 to 10 µM |  | 
FC(F)(F)c1ccc2c3c(oc2c1)CCCNC3 [Compound 48, 8-(trifluoromethyl)-2,3,4,5-tetrahydro-1H-benzofuro[3,2-c]azepine] | 1 to 10 µM | 0.101 to 1 µM |  | 
Fc1ccc2c3c(sc2c1)CCNCC3 [Compound 46, 8-fluoro-2,3,4,5-tetrahydro-1H-benzo[4,5]thieno[2,3-d]azepine] |  |  | < 0.01 µM | < 0.01 µM
c1ccc(COc2ccc3c4c(sc3c2)CCNCC4)cc1 [Compound 77, 8-(benzyloxy)-2,3,4,5-tetrahydro-1H-benzo[4,5]thieno[2,3-d]azepine] |  |  | 1 to 10 µM | 1 to 10 µM
CN1CCCc2oc3cc(F)ccc3c2C1 [Compound 9, 8-fluoro-2-methyl-2,3,4,5-tetrahydro-1H-benzofuro[3,2-c]azepine] | 1 to 10 µM | 1 to 10 µM |  | 
Fc1ccc2c3c(sc2c1)CCN(C1CCC1)CC3 [Compound 32, 3-cyclobutyl-8-fluoro-2,3,4,5-tetrahydro-1H-benzo[4,5]thieno[2,3-d]azepine] |  |  | 0.101 to 1 µM | 0.101 to 1 µM
COc1ccc2c3c(oc2c1)CCCN(CC(F)(F)F)C3 [Compound 11, 8-methoxy-2-(2,2,2-trifluoroethyl)-2,3,4,5-tetrahydro-1H-benzofuro[3,2-c]azepine] | > 10 µM | > 10 µM |  | 
COc1ccc2c3c(oc2c1)CCNCC3 [Compound 27, 8-methoxy-2,3,4,5-tetrahydro-1H-benzofuro[2,3-d]azepine] | 0.101 to 1 µM | 0.101 to 1 µM |  | 
COc1ccc2c3c(sc2c1)CCNCC3 [Compound 35, 8-methoxy-2,3,4,5-tetrahydro-1H-benzo[4,5]thieno[2,3-d]azepine] |  |  | 0.01 to 0.1 µM | 0.101 to 1 µM
CN1CCc2sc3cc(OCc4ccccc4)ccc3c2CC1 [Compound 79, 8-(benzyloxy)-3-methyl-2,3,4,5-tetrahydro-1H-benzo[4,5]thieno[2,3-d]azepine] |  |  | 1 to 10 µM | 1 to 10 µM
c1ccc(COc2ccc3c4c(sc3c2)CCN(C2CCC2)CC4)cc1 [Compound 78, 8-(benzyloxy)-3-cyclobutyl-2,3,4,5-tetrahydro-1H-benzo[4,5]thieno[2,3-d]azepine] |  |  | > 10 µM | 1 to 10 µM
FC(F)(F)CN1CCc2oc3ccccc3c2CC1 [Compound 29, 3-(2,2,2-trifluoroethyl)-2,3,4,5-tetrahydro-1H-benzofuro[2,3-d]azepine] | > 10 µM | > 10 µM |  | 
Fc1cccc2oc3c(c12)CN(C1CCC1)CCC3 [Compound 1, 2-cyclobutyl-10-fluoro-2,3,4,5-tetrahydro-1H-benzofuro[3,2-c]azepine] | > 10 µM | 1 to 10 µM |  | 
FC(F)(F)c1ccc2c3c(oc2c1)CCNCC3 [Compound 43, 8-(trifluoromethyl)-2,3,4,5-tetrahydro-1H-benzofuro[2,3-d]azepine] | 0.01 to 0.1 µM | 0.101 to 1 µM |  | 
